Laboratory results published in patent US20070036775A1, “Method of modulating or examining Ku70 levels in cells” (priority 2001, published 2007).

System: Hela cells
Assay: Anti-Fas antibody- and TRAIL-induced apoptosis in Hela cells
Format: cell-based, human
Details: Ku70 overexpression, 1 μg/ml anti-Fas antibody or 100 ng/ml TRAIL, 24 hours
Procedure: FIG. 3. Lowering Ku70 protein levels sensitized cells to apoptotic stimuli. […] One million of HEK293T cells (A and C) or HeLa cells (B, D, and E) were transfected with 2.0 μg pcDNA3 (Vector) or pcDNA3-reversed cDNA of Ku70 (antisense (AS) Ku70). Twenty-four hrs later, cells were collected and the levels of Ku70 as well as β-Tubulin were examined using total cell lysates (20 ug protein/lane). FIG. 3A: HEK293T cells (10^6 cells) were transfected with 2.0 μg pcDNA3 (Vector) or pcDNA3-antisense Ku70 (ASKu70). One day following transfection, cells were transfected with 0.5 μg pEGFP and 1.0 μg pcDNA3 (Vector) or pcDNA3-Bax (Bax). One day following the second transfection, the number of apoptotic cells was determined as described in FIG. 1. […] The number of apoptotic cells was measured as described in FIG. 1. […] One day following UVC-irradiation, the number of apoptotic cells was determined as described in FIG. 1. […] The number of apoptotic cells was measured as described in FIG. 1. […] Total cell lysates containing 20 ug protein were analyzed in each lane. […] MEFs derived from Ku70-proficient (Ku70+/+), Ku70-heterozygous (Ku70 +/−) or Ku70-deficient (Ku70−/−) mice were treated with STS (200 nM) or UVC-irradiation (200 J/m^2), and apoptotic cells were counted at the indicated periods as described in FIG. 1. […]

“Ku70: human full length Ku70, 70 kDa subunit of Ku-complex (609 amino acids), expressed from pCMV-2B plasmid” was tested. Which “effect on Fas- and TRAIL-induced apoptosis” value did it give?
Its value is “did not suppress apoptosis”.
